The assay addresses DPP-IV, obtained from porcine kidneys (Sus scrofa, UniProt P22411). As to the kind of experiment: Measurement of DPPIV inhibiting effects (Gly-Pro-p-nitroanilide, absorbance at 405 nm). Format: biochemical. Conditions: porcine kidney DPP-IV 10 mU/mL, 20 min preincubation, Gly-Pro-p-nitroanilide 0.33 mM, pH 7.4.

By UniProt entry, the sequences of proteins in these tests, tags left out.
UniProt P22411, whole entry: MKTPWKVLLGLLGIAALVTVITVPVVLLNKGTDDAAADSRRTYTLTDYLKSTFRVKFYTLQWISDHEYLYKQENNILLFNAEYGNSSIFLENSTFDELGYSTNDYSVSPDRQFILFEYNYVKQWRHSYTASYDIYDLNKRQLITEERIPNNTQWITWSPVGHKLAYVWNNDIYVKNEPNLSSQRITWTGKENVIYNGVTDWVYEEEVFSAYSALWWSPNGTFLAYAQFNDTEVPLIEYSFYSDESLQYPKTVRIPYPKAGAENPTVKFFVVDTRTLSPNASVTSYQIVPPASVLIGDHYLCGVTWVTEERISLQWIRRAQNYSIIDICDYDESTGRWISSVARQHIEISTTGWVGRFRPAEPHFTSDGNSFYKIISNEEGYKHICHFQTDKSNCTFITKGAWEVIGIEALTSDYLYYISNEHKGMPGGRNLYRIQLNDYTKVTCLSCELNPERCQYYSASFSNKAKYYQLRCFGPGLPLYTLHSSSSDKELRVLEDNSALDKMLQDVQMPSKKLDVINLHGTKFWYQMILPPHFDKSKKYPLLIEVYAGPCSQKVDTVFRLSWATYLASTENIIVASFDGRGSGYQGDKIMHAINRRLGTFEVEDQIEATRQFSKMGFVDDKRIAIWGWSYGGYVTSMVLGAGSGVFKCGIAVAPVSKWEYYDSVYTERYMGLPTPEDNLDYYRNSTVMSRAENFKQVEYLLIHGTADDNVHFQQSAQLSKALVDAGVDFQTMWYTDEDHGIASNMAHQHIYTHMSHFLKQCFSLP

For orientation: IC50 means the concentration that inhibits the measured activity by half. A higher IC50 goes with weaker potency.

Compound `Cc1cccc(OCC(F)(F)F)c1Sc1ncn(C(=O)N(C)C)n1` showed a concentration for half-maximal inhibition (IC50) of 2100 nM.

(Values after patent publication US7238720B2, “Pharmaceutical use of N-carbamoylazole derivatives” (Eisai R & D Management Co. Ltd., priority 2001, dated 2007).)
